We go through one molecule from US6420438B1, “1-amino-7-isoquinoline derivatives as serine protease inhibitors” (Tularik Limited, priority 1998, dated 2002).

Protein sequences, listed by entry. Tags and fused reporters are not part of them. Residues count along the entry.
UniProt P00747, 97-580 partner limits assumed: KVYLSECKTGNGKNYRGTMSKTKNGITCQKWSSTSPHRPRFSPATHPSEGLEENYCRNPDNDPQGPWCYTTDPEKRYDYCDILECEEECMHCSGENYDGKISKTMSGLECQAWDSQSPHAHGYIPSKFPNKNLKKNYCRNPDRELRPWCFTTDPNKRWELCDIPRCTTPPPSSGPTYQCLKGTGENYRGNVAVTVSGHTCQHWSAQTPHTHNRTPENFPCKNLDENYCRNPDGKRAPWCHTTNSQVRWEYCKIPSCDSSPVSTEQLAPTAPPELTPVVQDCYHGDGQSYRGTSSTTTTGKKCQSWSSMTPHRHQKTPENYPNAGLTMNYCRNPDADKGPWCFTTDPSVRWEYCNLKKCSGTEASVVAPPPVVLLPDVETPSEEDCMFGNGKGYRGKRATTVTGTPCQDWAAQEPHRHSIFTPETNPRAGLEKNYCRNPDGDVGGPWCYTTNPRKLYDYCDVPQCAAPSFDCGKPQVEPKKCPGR
UniProt P00747, 581-810 limits assumed: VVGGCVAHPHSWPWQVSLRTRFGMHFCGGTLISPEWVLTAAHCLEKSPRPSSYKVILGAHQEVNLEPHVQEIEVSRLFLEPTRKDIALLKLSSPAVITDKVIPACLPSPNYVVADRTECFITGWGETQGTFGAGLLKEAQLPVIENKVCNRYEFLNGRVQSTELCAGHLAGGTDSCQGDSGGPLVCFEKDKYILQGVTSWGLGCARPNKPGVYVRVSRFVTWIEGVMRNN

This assay deals with plasmin (Homo sapiens, UniProt P00747). The experiment in a line: Enzyme inhibition assay, chromogenic substrate pefachrome-PL. Format: biochemical. The following applies: room temperature, 0.1M phosphate buffer, pH7.4.

In the case of `N=C(N)c1ccccc1` [benzamidine], the affinity, expressed as Ki, was 200 nM.
